Results taken from article PMC8095719 (Science translational medicine, 2020).

Tested on: ERK1/2 phosphorylation
Conditions: wild-type and Fmr1^−/y hippocampal slices, CDPPB then DHPG

## CC[C@]1(c2ccccc2)C2=CNNC2=NC2=C1C(=O)CC(C)(C)C2 [BRD0705, (S)-4-ethyl-7,7-dimethyl-4-phenyl-1,2,4,6,7,8-hexahydro-5H-pyrazolo[3,4-b]quinolin-5-one]
  ERK1/2 phosphorylation after mGluR5 activation: no decrease in ERK phosphorylation
